This is a selection; strong and weak results do not stand in their true shares. Active and inactive are the calls of the source. How the source made its calls: active means hit-call score of the fitted dose curve at least 0.9, where 1 is the maximum; inactive means score below 0.9.
Target: Paired box protein Pax-6 (Homo sapiens) (UniProt P26367)
Assay: ATG_Pax6_CIS: Attagene CIS-FACTORIAL HepG2 Assay for human Paired Box 6 (PAX6) (AID 2282956)
Conditions: HepG2 CIS-FACTORIAL PAX6 reporter transcription, RNA readout; actives raise or lower the signal
Method: ATG_CIS is a cell-based, multiplexed-readout assay that uses HepG2, a human liver cell line, with measurements taken at 24 hours after chemical dosing in a 24-well plate.ATG_Pax6_CIS is one of 52 assay component(s) measured or calculated from the ATG_CIS assay. It is designed to make measurements of mRNA induction, a form of inducible reporter, as detected with fluorescence intensity signals by Reverse transcription polymerase chain reaction (RT-PCR) and Capillary electrophoresis technology.Data from the assay component ATG_Pax6_CIS was analyzed into 1 assay endpoint. This assay endpoint, ATG_Pax6_CIS, was analyzed with bidirectional fitting relative to DMSO as the negative control and baseline of activity. Using a type of inducible reporter, measures of mRNA for gain or loss-of-signal activity can be used to understand the reporter gene at the transcription factor-level as they relate to the gene PAX6. Furthermore, this assay endpoint can be referred to as a primary readout, because this assay has produced multiple assay endpoints where this one serves a reporter gene function. To generalize the intended target to other relatable targets, this assay endpoint is annotated to the dna binding intended target family, where the subfamily is paired box protein.
Human liver HepG2 cells are transiently transfected with multiple reporter transcription units (MRTUs) in 6-well plates using FuGene 6 reagent (Roche; 3 ml FuGene/1 mg DNA). The MRTU constructs are regulated by a cis-regulating element (promoter). […] A major difference between the CIS and TRANS system is that in CIS activities of endogenous TFs are measured, whereas the TRANS assay evaluates changes in activities of exogenous, chimeric NR-Gal4 proteins. […] At the end of 24 hour incubation, total RNA was isolated using TriZol reagent (Invitrogen). The isolated RNA is then reverse-transcribed using oligo(dT) primer and Mo-MLV reverse transcriptase (Invitrogen) with DNAse I (Ambion) treatment for 30 min. The one-tenth of the produced cDNA was amplified by PCR using Taq DNA polymerase (Invitrogen) and two reporter sequence-specific primers. The PCR products were fluorescently labeled by primer extension with 6-arboxyfluorescein (6-FAM) 5'-labeled reporter sequence-specific primer (2 min at 95 C, 20 s at 68 C and 10 min at 72 C) and these products were digested with 5U of HpaI (New England Biolabs) for 2h at 37 C. The fragments were purified using Qiaquick PCR columns (Qiagen), analyzed on an ABI 3130xL genetic analyzer (Applied Biosystems) with peak positions identified by using a set of X-rhodamine (ROX)-labeled MapMarker1000 molecular weight standards (BioVentures). The raw capillary electrophoresis data was processed using Attagraph software (Attagene).

Chains of the proteins cited; added tags and fusions are not shown.
UniProt P26367, whole entry: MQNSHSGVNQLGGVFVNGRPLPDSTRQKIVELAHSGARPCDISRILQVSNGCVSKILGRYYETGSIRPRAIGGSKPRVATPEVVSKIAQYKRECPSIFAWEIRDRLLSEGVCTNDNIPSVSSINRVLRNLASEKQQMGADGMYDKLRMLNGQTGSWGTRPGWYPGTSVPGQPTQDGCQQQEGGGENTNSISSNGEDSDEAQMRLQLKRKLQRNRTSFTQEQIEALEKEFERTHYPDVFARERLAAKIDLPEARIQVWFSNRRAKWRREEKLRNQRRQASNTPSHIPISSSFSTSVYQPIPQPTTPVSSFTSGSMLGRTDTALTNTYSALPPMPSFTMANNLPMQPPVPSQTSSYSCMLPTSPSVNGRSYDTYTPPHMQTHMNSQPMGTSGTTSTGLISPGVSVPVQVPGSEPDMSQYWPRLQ

| Structure (SMILES) | outcome | AC50 |
| --- | --- | --- |
| O=[N+]([O-])c1cccc([N+](=O)[O-])c1 | inactive |  |
| Cc1cccc([N+](=O)[O-])c1[N+](=O)[O-] |  | active: 111 µM |
| COP(C)(=O)OC | inactive |  |
| N#CBr | inactive |  |
| O=[N+]([O-])OCC(CO[N+](=O)[O-])(CO[N+](=O)[O-])CO[N+](=O)[O-] | inactive |  |
| Cc1ccc([N+](=O)[O-])c([N+](=O)[O-])c1 | inactive |  |
| CN(C)CCCl | inactive |  |
| CC(C)OP(C)(=O)OC(C)C | inactive |  |
| Cc1c([N+](=O)[O-])cccc1[N+](=O)[O-] | inactive |  |
| COc1ccc([N+](=O)[O-])cc1[N+](=O)[O-] | inactive |  |
| Cc1ccc([N+](=O)[O-])cc1[N+](=O)[O-] | inactive |  |
| CC(C)N(CCO)C(C)C | inactive |  |
